Measurements taken from PubChem BioAssay (Tox21).
Several values for one entry are separate records, joined by “and”; a condition that tells them apart may be missing. Equal entries are not always repeated. The list shows a part of the results, in another mix than the full data. Results filed as inconclusive are left out. Some structures have more than one record in an assay (separate samples or runs), and their calls can disagree. Activity calls are given as the source filed them. Unless noted, calls come from the whole dose curve; as a rule, active = well fitted cell-killing curve with a large enough effect in the repeat runs; inconclusive = weak or mixed curves, or effect the other way; inactive = no such curve, though single readings can be large or run the other way.

Amino acid sequences for entries named in this document (tags omitted). A change or cut given only in a name is not applied to a line headed by its entry.
UniProt Q03181: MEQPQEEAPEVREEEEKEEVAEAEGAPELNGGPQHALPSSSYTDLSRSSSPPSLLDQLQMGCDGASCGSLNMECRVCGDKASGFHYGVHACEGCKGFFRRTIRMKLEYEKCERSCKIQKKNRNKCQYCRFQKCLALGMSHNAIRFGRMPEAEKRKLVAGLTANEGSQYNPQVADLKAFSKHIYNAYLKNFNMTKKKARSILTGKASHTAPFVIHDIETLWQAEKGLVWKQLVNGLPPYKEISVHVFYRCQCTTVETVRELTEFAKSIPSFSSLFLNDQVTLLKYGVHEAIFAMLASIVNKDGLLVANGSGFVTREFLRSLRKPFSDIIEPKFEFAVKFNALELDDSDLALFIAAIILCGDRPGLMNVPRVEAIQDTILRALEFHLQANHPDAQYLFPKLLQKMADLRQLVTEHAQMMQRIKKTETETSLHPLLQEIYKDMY
UniProt P11473: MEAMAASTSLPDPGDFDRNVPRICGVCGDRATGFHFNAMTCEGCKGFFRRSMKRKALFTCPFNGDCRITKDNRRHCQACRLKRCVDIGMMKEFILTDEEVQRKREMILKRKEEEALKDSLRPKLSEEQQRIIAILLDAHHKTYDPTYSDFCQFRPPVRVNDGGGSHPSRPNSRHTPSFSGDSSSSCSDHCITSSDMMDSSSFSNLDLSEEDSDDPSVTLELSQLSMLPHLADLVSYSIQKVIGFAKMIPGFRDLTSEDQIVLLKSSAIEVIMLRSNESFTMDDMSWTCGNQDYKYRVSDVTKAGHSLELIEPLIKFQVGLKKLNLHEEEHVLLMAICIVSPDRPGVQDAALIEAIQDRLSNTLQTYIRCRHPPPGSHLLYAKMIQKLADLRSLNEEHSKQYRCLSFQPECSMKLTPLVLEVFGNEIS
UniProt Q96RI1: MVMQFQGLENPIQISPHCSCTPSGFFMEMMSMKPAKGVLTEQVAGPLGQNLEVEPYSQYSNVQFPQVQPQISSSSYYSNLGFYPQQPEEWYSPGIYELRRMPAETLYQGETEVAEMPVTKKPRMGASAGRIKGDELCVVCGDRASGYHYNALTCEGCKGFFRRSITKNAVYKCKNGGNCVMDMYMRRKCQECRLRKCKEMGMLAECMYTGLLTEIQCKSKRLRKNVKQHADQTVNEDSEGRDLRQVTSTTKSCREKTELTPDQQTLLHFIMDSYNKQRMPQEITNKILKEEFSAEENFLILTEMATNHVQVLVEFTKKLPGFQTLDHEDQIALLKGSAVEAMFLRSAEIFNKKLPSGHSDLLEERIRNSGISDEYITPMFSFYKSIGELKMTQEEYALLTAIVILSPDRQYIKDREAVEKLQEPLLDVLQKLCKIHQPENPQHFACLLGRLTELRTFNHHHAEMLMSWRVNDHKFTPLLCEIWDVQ

Key:
[1] = molecular target: Peroxisome proliferator-activated receptor delta (Homo sapiens) (UniProt Q03181); assay: qHTS assay to identify small molecule antagonists of the peroxisome proliferator-activated receptor delta (PPARd) signaling pathway (AID 743215; active = well fitted inhibition curve with a large enough effect in the signal ratio in the repeat runs, not every such curve was filed as active; the % refers to the signal ratio;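 note: cells stimulated with agonist L165041 at 300 nM final during compound exposure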); settings: HEK293H PPARd-UAS-bla, beta-lactamase FRET ratio, antagonist, 17 h; at 62 µM (top of the series)
How it was run: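 Screen format: qHTS, antagonist mode. HEK293H PPARd-bla cells received compound and 300 nM L165041 (final), 17 h, 37 C. Beta-lactamase detected via FRET substrate fluorescence, 2 h, room temperature.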

[2] = qHTS assay to identify small molecule antagonists of the farnesoid-X-receptor (FXR) signaling pathway - cell viability counter screen (AID 743221; active = well fitted cell-killing curve with a large enough effect in the repeat runs, not every such curve was filed as active; note: nearly all actives have a fitted effect of over 50% in size; note: potency is the fitted concentration of half-maximal effect); settings: FXR-bla HEK293T viability, CellTiter-Glo luminescence, 16 h; series mostly up to 62.6 µM
[3] = molecular target: Vitamin D3 receptor (Homo sapiens) (UniProt P11473); assay: qHTS assay to identify small molecule antagonists of the vitamin D receptor (VDR) signaling pathway (AID 743223; active = well fitted inhibition curve with a large enough effect in the signal ratio in the repeat runs, not every such curve was filed as active; the % refers to the signal ratio); settings: VDR-UAS-bla HEK293T, beta-lactamase FRET ratio, 16 h; at 61 µM (top of the series) unless noted
How it was run: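 Beta-lactamase reporter read-out: FRET substrate fluorescence after 2 h at room temperature, following 16 h exposure of VDR-bla cells to test compound plus 3 nM (final) 1alpha,25-dihydroxyvitamin D3 agonist at 37C.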

[4] = qHTS assay to identify small molecule agonists of the vitamin D receptor (VDR) signaling pathway - cell viability counter screen (AID 743224); settings: VDR-bla HEK293T viability, CellTiter-Glo luminescence, 16 h; series mostly up to 62.6 µM; note: nearly all actives have a fitted effect of over 50% in size; note: potency is the fitted concentration of half-maximal effect
How it was run: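 Counter screen for cytotoxicity: VDR-bla cells at 2,000 cells/well, 16 h compound exposure, then CellTiter-Glo luminescence after the beta-lactamase measurement.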

[5] = qHTS assay to identify small molecule antagonists of the vitamin D receptor (VDR) signaling pathway - cell viability counter screen (AID 743225); settings: VDR-bla HEK293T viability, CellTiter-Glo luminescence, 16 h; series mostly up to 61 µM; note: nearly all actives have a fitted effect of over 50% in size; note: potency is the fitted concentration of half-maximal effect
How it was run: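 Viability counter screen run in the same wells as the beta-lactamase reporter assay: HEK 293T VDR-UAS-bla cells, 16 h compound exposure at 37C with 3 nM (final) 1-alpha,25-dihydroxyvitamin D3. CellTiter-Glo luminescence, 30 min, room temperature.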

[6] = qHTS assay to identify small molecule agonists of the NFkB signaling pathway (AID 1159509; active = well fitted curve in the direction sought with a large enough effect in the signal ratio in the repeat runs, not every such curve was filed as active; the % refers to the signal ratio); settings: NFkB-bla ME-180 cells, beta-lactamase FRET ratio, 5 h; at 61 µM (top of the series) unless noted
How it was run: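 Readout: FRET fluorescence, 405 nm excitation, 460/530 nm emission; beta-lactamase expression disrupts FRET. Cells: ME-180 stably carrying NF-kB-driven bla reporter. Compound exposure 5 hr, 37 C, 5% CO2.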

[7] = qHTS assay to identify small molecule agonists of the endoplasmic reticulum stress response signaling pathway (AID 1159516; active = well fitted activation curve with a large enough effect in the signal ratio in the repeat runs, not every such curve was filed as active; the % refers to the signal ratio); settings: ESRE-bla HeLa, ER stress beta-lactamase reporter, 5 h; at 61 µM (top of the series) unless noted
How it was run: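 For this screen, HeLa cells stably carrying beta-lactamase under the ER stress response element received test compounds, positive controls or DMSO for 5 hr at 37 C; B/G FRET substrate was then added and dual-wavelength emission recorded.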

[8] = qHTS assay to identify small molecule antagonists of the retinoid-related orphan receptor gamma (ROR-gamma) signaling pathway - cell viability counter screen (AID 1159520); settings: Tet-on RORgamma CHO cells viability, ATP luminescence, 16 h; series mostly up to 92.4 µM; note: nearly all actives have a fitted effect of over 50% in size; note: potency is the fitted concentration of half-maximal effect
How it was run: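 Cytotoxicity was read from cellular ATP (CellTiter-Glo luminescence) after 16 hr at 37 C with 1 uM doxycycline induction. The inducer was added 2 hr after compound transfer to Tet-on ROR gamma CHO cells.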

[9] = molecular target: Bile acid receptor (Homo sapiens) (UniProt Q96RI1); assay: qHTS assay to identify small molecule antagonists of the farnesoid-X-receptor (FXR) signaling pathway (AID 743217; active = well fitted inhibition curve with a large enough effect in the signal ratio in the repeat runs, not every such curve was filed as active; the % refers to the signal ratio); settings: HEK293T FXR-UAS-bla, beta-lactamase ratio, CDCA-stimulated, 16 h; at 62.6 µM (top of the series) unless noted
How it was run: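 Quantitative HTS, beta-lactamase reporter format: FXR-UAS-bla HEK 293T cells co-treated 16 h at 37 °C with compounds and 50 uM final chenodeoxycholic acid, then read by B/G FRET fluorescence.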

[10] = molecular target: Bile acid receptor (Homo sapiens) (UniProt Q96RI1); assay: qHTS assay to identify small molecule agonists of the farnesoid-X-receptor (FXR) signaling pathway (AID 743220; active = well fitted activation curve with a large enough effect in the signal ratio in the repeat runs, not every such curve was filed as active; the % refers to the signal ratio); settings: HEK293T FXR-UAS-bla, beta-lactamase FRET ratio, 16 h
% is set by controls: 0 for no effect and ±100 for the full control effect.

CN(C(=O)Cc1ccc(Cl)c(Cl)c1)[C@H]1CC[C@@]2(CCCO2)C[C@@H]1N1CCCC1
inactive: ratio activity, negative = inhibition [1] 0.563% | Potency [2] | activity change, negative = inhibition [3] 3.99% | Potency [4] | Potency [5] | activation [6] 0.0264% | activation [7] -0.137% | Potency [8]

CN(C(=O)Cc1cccc2occc12)[C@H]1CC[C@@]2(CCCO2)C[C@@H]1N1CCCC1
inactive: activity change, negative = inhibition [9] -1.56% | activation ([10]; at 62.6 µM (top of the series)) -0.0904% | Potency [2] | activity change, negative = inhibition [3] 0.141% | Potency [4] | Potency [5] | activation [6] -0.0074% | activation [7] 3.7% | Potency [8]

O=C(Cl)OCCOC(=O)Cl
inactive: Potency [8]

COC(=O)Cl
inactive: activity change, negative = inhibition [9] -2.16% | activation ([10]; at 62.6 µM (top of the series)) -0.264% | Potency [2] | Potency [4] | Potency [5] | activation [7] 0.391% | Potency [8]

O=[P+](Oc1ccccc1)Oc1ccccc1
inactive: ratio activity, negative = inhibition [1] 1.3% | Potency [2] | activity change, negative = inhibition [3] 6.64% | Potency [4] | Potency [5] | activation [7] -0.549% | Potency [8]

CC(C)CCCCCCCOP(OCCCCCCCC(C)C)Oc1ccccc1
inactive: Potency [2] | Potency [4] | Potency [5] | activation [6] 0.729% | activation [7] 1.96% | Potency [8]

CCCCCCCCCCCCCC[P+](CCCCCC)(CCCCCC)CCCCCC
active: Potency [2] 48.8 µM | Potency [4] 6.15 µM

CC(C)OP(=S)(OC(C)C)SCCNS(=O)(=O)c1ccccc1
active: Potency [5] 49 µM
inactive: Potency [2] | activation [7] 1% | Potency [8]

O=[N+]([O-])c1ccc(S(=O)(=O)O)c([N+](=O)[O-])c1
inactive: Potency [2] | Potency [4] | Potency [5] | activation [7] -1.2% [at 78.8 µM] | Potency [8]

CCNC(C)Cc1ccc2c(c1)OCO2 (centres undefined)
inactive: activity change, negative = inhibition [9] -17.5% [at 81.1 µM] | activation ([10]; at 81.1 µM (top of the series)) -0.0457% | Potency [2] | activity change, negative = inhibition [3] 7.35% [at 78.8 µM] | Potency [4] | Potency [5] | activation [6] 0.981% [at 78.8 µM] | activation [7] 7.04% [at 78.8 µM] | Potency [8]

CCOC(=O)Cl
inactive: Potency [2] | activity change, negative = inhibition [3] -0.447% | Potency [4] | Potency [5] | activation [6] 0.204% | activation [7] -2.26% | Potency [8]

CCOP(=S)(CC)Sc1ccccc1 (centres undefined)
inactive: Potency [2] | activity change, negative = inhibition [3] 1.82% | Potency [4] | Potency [5] | activation [6] 0.816% | activation [7] -0.0559% | Potency [8]

Cc1cc([N+](=O)[O-])c(O)c([N+](=O)[O-])c1
inactive: Potency [2] | Potency [4] | Potency [5] | activation [7] -3.82% [at 78.8 µM] | Potency [8]

O=P(Cl)(Cl)c1ccccc1
inactive: Potency [2] | activity change, negative = inhibition [3] 20.9% | Potency [4] | Potency [5] | activation [7] 0.0717% | Potency [8]

O=C1C2CC=CCC2C(=O)N1SC(Cl)(Cl)C(Cl)Cl (centres undefined)
inactive: activation ([10]; at 62.6 µM (top of the series)) -6.31% | activation ([10]; at 81.1 µM (top of the series)) 0.64%
active: Potency [4] 7.82 µM and 1.74 µM | Potency [5] 7.76 µM

Cc1cc([N+](=O)[O-])cc([N+](=O)[O-])c1O
active: Potency [4] 49 µM
inactive: activation ([10]; at 62.6 µM (top of the series)) -0.171% | Potency [2] | activity change, negative = inhibition [3] -11.5% | activation [6] -0.363% and -1.26% | activation [7] -5.03%

COP(=S)(Cl)OC
inactive: activity change, negative = inhibition [9] 5.46% [at 81.1 µM] | activation ([10]; at 81.1 µM (top of the series)) 2.49% | Potency [2] | activity change, negative = inhibition [3] 21.1% [at 78.8 µM] | Potency [4] | activation [6] -0.998% [at 78.8 µM] | activation [7] 1.47% [at 78.8 µM] | Potency [8]

NC(=O)Nc1ccc([As](=O)(O)O)cc1
inactive: activity change, negative = inhibition [9] 2.37% and 0.283% | activation ([10]; at 62.6 µM (top of the series)) -1.35% and -2.28% | Potency [2] | activity change, negative = inhibition [3] 4.66% and -2.04% | Potency [5] | activation [7] 1.8% and 0.109% | Potency [8]

CCC(C)(OOC(C)(C)C)OOC(C)(C)C
inactive: activity, negative = cytotoxicity [8] -6.7% [at 19 µM]

ClP(Cl)c1ccccc1
inactive: ratio activity, negative = inhibition [1] 2.46% | Potency [2] | activity change, negative = inhibition [3] 0.105% | Potency [4] | Potency [5] | activation [6] -0.797% | activation [7] 0% | Potency [8]

CCCCO[P+](=O)OCCCC
inactive: Potency [2] | activity change, negative = inhibition [3] -1.69% | Potency [4] | Potency [5] | activation [6] -0.0475% and -0.0121% | activation [7] 0.736% | Potency [8]

CN(N=O)C(=N)N[N+](=O)[O-]
inactive: Potency [2] | activity change, negative = inhibition [3] 20.5% | Potency [4] | Potency [5]

O=P(Cl)(Oc1ccccc1)Oc1ccccc1
inactive: ratio activity, negative = inhibition [1] 11.5% | Potency [2] | Potency [4] | Potency [5] | activation [6] -1.19% | activation [7] -0.149% | Potency [8]

CCCCOP(OCCCC)OCCCC
inactive: Potency [8]

O=[As]c1ccccc1 (centres undefined)
active: Potency [5] 0.49 µM | Potency [8] 0.344 µM

CN(C(=O)Cc1ccccc1)[C@H]1CC[C@@]2(CCCO2)C[C@@H]1N1CCCC1
inactive: ratio activity, negative = inhibition [1] 4.35% | activity change, negative = inhibition [9] 4.78% | activation ([10]; at 62.6 µM (top of the series)) 0.976% | Potency [2] | activity change, negative = inhibition [3] 14.2% | Potency [4] | Potency [5] | activation [7] 3.13% | Potency [8]

O=C(Cl)Oc1ccccc1
inactive: Potency [8]

CCCCC(CC)CO[P+](=O)OCC(CC)CCCC (centres undefined)
inactive: ratio activity, negative = inhibition [1] -0.628% | Potency [2] | activity change, negative = inhibition [3] 2.33% | Potency [4] | Potency [5] | activation [6] -0.3% | Potency [8]

O=[p+]1oc2ccccc2c2ccccc21 (centres undefined)
inactive: ratio activity, negative = inhibition [1] 13.5% | activity change, negative = inhibition [9] 1.03% | activation ([10]; at 62.6 µM (top of the series)) -0.114% | Potency [2] | Potency [4] | Potency [5] | activation [6] -0.284% | activation [7] -3.16% | Potency [8]
